# In patent publication US8959984B2, “Proteome-wide quantification of small molecule binding to cellular target proteins” (priority 2007, dated 2015):
# Protein sequences, listed by entry. Tags and fused reporters are not part of them. Lines headed by an entry give the natural chain unless they say otherwise; changes in a name come on top.
# UniProt P43490: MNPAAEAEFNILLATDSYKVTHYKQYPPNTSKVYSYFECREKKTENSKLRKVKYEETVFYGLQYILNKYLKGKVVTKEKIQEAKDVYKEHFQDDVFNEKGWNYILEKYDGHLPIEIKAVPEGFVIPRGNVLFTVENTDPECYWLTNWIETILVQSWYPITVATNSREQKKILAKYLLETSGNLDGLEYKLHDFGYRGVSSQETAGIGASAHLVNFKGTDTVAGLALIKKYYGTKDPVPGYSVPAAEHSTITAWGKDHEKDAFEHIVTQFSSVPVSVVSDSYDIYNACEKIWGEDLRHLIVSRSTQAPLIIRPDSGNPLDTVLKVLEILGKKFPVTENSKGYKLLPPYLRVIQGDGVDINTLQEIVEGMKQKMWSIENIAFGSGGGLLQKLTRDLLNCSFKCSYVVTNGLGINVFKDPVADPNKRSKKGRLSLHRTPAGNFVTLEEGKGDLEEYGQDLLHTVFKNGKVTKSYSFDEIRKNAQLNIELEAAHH
# UniProt Q9NYL2: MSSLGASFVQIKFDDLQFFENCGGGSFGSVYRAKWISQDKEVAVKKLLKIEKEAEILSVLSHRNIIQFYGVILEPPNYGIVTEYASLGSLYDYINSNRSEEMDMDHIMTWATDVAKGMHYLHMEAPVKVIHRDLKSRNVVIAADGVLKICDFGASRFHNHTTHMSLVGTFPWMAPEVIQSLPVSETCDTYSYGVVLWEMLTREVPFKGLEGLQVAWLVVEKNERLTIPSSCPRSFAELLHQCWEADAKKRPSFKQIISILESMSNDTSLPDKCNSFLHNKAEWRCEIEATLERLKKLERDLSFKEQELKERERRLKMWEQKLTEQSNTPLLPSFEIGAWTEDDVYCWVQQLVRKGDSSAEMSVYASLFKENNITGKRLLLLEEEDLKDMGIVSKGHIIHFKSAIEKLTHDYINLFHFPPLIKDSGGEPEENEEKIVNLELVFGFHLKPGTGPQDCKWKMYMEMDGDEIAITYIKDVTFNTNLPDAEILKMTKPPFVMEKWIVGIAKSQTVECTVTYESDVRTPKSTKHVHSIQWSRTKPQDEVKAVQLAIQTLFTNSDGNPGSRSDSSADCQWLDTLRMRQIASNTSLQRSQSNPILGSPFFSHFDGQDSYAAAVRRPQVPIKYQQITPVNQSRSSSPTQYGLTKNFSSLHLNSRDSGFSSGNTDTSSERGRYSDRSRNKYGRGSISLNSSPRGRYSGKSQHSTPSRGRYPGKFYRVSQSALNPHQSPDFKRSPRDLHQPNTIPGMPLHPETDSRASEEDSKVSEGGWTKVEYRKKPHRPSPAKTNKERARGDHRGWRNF
# UniProt O43353, whole entry: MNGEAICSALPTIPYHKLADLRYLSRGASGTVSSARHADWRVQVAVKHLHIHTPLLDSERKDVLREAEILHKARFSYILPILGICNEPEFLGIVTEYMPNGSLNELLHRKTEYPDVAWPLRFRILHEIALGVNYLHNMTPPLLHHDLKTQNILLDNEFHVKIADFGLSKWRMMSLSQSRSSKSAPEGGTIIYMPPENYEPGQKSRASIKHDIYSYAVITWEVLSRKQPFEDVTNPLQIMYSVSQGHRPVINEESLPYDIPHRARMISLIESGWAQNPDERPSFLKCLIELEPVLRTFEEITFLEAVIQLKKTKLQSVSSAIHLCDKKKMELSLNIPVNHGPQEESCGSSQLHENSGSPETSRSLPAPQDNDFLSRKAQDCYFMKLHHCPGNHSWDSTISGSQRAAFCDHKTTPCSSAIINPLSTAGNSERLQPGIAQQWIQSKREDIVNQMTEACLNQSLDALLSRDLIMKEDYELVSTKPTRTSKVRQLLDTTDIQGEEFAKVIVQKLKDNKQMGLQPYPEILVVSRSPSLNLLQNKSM
# UniProt Q13233: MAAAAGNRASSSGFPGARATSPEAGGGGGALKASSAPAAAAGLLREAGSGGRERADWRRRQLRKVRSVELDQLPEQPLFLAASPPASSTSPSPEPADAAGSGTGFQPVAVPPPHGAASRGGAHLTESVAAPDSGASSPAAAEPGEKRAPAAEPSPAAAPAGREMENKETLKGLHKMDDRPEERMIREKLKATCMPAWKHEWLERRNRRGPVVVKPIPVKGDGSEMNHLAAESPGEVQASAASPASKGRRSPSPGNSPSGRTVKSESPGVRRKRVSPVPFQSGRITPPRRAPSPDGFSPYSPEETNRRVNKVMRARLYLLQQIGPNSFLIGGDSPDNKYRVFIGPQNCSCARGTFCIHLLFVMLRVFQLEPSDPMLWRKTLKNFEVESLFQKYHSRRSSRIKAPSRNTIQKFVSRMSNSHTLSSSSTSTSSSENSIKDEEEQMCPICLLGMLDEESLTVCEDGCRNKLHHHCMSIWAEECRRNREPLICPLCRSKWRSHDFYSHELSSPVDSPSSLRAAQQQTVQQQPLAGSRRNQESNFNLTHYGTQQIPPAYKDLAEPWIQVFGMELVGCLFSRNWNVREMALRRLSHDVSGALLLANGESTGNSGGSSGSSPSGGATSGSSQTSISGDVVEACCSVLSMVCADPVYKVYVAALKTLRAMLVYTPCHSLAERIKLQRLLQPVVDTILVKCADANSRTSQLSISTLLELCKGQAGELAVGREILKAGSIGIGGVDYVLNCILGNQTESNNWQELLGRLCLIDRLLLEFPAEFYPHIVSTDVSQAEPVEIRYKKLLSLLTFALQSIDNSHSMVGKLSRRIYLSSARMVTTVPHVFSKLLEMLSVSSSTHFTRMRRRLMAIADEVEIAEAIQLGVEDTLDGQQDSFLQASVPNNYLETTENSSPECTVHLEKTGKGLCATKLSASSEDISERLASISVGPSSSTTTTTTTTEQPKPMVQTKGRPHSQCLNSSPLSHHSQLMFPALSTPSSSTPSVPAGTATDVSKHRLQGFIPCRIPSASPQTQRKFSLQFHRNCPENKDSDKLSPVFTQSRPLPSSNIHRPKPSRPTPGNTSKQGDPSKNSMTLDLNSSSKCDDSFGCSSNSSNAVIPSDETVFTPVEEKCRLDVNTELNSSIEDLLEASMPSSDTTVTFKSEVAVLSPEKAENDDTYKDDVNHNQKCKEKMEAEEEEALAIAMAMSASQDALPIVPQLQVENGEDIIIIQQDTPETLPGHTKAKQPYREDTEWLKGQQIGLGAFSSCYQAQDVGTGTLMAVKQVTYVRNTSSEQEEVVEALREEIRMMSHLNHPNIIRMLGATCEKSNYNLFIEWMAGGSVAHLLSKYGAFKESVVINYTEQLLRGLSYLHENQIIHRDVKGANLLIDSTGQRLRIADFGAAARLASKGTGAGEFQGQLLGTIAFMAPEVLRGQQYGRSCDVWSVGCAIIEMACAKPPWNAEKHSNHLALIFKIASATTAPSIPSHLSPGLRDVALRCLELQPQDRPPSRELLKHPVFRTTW
# UniProt Q13131: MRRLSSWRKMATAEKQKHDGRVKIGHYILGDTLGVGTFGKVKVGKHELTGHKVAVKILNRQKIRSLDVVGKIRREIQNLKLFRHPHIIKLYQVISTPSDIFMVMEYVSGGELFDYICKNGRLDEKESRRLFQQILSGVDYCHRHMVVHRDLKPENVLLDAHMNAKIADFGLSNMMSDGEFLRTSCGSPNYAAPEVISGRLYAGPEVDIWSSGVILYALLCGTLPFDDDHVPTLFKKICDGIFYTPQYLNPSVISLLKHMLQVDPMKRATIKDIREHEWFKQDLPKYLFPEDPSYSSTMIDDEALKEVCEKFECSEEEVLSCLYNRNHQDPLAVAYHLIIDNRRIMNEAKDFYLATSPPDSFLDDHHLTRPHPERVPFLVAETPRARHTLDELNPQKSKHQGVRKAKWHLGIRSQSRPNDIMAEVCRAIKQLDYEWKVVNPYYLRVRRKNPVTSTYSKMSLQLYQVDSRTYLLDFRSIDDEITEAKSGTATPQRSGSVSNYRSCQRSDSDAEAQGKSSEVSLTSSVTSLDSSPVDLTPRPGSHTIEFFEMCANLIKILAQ
# UniProt P35270: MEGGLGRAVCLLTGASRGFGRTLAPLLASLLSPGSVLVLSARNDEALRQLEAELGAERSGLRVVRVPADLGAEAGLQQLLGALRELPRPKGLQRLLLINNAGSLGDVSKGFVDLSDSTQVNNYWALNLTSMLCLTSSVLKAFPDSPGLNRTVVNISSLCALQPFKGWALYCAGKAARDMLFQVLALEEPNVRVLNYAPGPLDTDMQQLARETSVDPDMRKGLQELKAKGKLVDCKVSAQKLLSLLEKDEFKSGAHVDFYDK
# UniProt P50750, whole entry: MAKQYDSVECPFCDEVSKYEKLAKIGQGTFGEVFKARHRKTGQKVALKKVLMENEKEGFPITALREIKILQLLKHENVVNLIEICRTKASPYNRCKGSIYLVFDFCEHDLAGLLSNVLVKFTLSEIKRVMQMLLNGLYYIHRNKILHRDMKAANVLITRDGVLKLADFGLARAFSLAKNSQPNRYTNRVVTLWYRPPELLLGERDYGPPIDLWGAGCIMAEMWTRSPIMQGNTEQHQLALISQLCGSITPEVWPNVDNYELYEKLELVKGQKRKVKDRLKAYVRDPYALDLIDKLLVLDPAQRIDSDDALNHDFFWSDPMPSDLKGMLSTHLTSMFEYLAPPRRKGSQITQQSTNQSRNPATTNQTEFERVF
# UniProt Q16584: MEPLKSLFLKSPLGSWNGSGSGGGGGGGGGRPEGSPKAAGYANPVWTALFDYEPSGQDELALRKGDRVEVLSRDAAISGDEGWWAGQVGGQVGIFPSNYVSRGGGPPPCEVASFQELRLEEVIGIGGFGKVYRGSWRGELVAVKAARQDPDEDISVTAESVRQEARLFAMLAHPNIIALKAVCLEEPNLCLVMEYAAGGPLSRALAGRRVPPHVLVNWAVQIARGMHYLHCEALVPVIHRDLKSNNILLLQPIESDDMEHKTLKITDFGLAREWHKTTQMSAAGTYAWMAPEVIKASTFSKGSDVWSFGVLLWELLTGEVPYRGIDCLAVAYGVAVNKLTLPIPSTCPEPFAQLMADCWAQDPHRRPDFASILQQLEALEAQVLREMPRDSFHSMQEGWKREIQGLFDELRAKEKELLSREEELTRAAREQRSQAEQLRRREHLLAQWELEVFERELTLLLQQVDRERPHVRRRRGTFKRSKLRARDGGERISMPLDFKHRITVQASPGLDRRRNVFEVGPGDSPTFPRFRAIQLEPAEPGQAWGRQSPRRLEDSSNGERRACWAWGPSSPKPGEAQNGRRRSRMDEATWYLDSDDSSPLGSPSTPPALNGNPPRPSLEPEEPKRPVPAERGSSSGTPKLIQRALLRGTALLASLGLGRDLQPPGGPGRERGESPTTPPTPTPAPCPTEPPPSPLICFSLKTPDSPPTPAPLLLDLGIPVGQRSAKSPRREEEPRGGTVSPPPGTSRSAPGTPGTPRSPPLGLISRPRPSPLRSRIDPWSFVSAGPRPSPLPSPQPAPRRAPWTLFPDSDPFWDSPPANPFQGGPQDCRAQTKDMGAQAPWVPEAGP
# UniProt Q9BUL8: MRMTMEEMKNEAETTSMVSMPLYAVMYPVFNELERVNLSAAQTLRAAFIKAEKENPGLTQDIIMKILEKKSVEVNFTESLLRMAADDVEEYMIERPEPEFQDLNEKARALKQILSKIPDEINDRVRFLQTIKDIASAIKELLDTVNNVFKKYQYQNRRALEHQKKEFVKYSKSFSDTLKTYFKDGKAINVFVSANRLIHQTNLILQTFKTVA
# UniProt Q00537: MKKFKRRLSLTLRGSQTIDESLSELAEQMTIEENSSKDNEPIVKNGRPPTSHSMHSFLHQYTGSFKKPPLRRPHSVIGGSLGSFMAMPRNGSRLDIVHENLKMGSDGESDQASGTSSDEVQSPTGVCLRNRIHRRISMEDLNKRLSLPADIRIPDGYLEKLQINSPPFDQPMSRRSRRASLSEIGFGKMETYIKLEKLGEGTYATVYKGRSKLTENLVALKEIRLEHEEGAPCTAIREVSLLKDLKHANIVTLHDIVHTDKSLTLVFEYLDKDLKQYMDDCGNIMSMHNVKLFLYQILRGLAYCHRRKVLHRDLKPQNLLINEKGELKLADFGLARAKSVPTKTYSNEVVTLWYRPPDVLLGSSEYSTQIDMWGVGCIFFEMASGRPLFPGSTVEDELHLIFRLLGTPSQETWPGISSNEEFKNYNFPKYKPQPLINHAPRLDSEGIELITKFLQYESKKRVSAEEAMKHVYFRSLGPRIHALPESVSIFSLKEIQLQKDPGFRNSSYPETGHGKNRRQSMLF
# UniProt P14635, whole entry: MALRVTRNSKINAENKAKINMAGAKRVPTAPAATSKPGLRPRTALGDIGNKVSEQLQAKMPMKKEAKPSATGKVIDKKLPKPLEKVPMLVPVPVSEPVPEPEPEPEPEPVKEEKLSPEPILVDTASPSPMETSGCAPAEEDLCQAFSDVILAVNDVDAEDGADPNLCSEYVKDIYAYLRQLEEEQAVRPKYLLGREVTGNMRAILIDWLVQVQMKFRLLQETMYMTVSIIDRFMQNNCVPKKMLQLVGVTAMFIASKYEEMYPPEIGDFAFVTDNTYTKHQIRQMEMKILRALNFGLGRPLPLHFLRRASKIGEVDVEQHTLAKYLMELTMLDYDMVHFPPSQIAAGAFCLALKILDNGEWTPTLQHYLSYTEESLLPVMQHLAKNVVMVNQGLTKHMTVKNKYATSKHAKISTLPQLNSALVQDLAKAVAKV
# Legend:
# Experiment in all cases: Ki determination for immobilized VI16742: two consecutive incubations, control beads, ligand concentration and incubation time controls (Tables 7, 8)
# Assay type in all cases: binding
# [1] = biological target: cellular target proteins in HeLa cell lysate (Homo sapiens, UniProt P43490); conditions: Ki (VI16742), NAMPT IPI00018873
# [2] = biological target: cellular target proteins in HeLa cell lysate (Homo sapiens, UniProt Q9NYL2); conditions: Ki (VI16742)
# [3] = biological target: cellular target proteins in HeLa cell lysate (Homo sapiens, UniProt O43353); conditions: Ki (VI16742), RIPK2 IPI00021917
# [4] = biological target: cellular target proteins in HeLa cell lysate (Homo sapiens, UniProt Q9UEW8)
# [5] = biological target: cellular target proteins in HeLa cell lysate (Homo sapiens, UniProt P29317); conditions: Ki (VI16742), EphA2 (EPHA2) IPI00021267
# [6] = biological target: cellular target proteins in HeLa cell lysate (Homo sapiens, UniProt Q13233); conditions: Ki (VI16742), MAP3K1 IPI00855985
# [7] = biological target: cellular target proteins in HeLa cell lysate (Homo sapiens, UniProt Q13131); conditions: Ki (VI16742), AMPKa1 (PRKAA1) IPI00410287
# [8] = biological target: cellular target proteins in HeLa cell lysate (Homo sapiens, UniProt P35270); conditions: Ki (VI16742), SPR IPI00017469
# [9] = biological target: T1, cellular target proteins in HeLa cell lysate (Homo sapiens, UniProt Q8TBX8); conditions: Ki (VI16742), PIP4K2C IPI00152303
# T1 sequence (Q8TBX8 1-421): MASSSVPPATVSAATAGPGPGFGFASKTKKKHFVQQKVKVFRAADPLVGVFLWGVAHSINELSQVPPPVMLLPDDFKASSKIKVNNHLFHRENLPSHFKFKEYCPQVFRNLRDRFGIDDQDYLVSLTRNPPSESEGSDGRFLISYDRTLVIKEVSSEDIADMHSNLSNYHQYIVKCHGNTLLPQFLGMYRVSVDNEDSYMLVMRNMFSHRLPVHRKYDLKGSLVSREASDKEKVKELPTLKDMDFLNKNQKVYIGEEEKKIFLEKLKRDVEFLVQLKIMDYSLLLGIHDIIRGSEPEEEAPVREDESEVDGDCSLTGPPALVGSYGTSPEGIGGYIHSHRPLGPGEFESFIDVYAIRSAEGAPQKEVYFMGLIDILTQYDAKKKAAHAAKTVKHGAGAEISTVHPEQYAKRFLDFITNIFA
# [10] = biological target: cellular target proteins in HeLa cell lysate (Homo sapiens, UniProt P48730); conditions: Ki (VI16742), CK1d (CSNK1D) IPI00234463
# [11] = biological target: cellular target proteins in HeLa cell lysate (Homo sapiens, UniProt P50750); conditions: Ki (VI16742), CDK9 IPI00552413
# [12] = biological target: cellular target proteins in HeLa cell lysate (Homo sapiens, UniProt Q16584); conditions: Ki (VI16742), MLK3 (MAP3K11) IPI00000977
# [13] = biological target: cellular target proteins in HeLa cell lysate (Homo sapiens, UniProt Q9BUL8); conditions: Ki (VI16742), PDCD10 IPI00298558
# [14] = biological target: cellular target proteins in HeLa cell lysate (Homo sapiens, UniProt Q86UE8); conditions: Ki (VI16742), TLK2 IPI00337659
# [15] = biological target: cellular target proteins in HeLa cell lysate (Homo sapiens, UniProt Q00537); conditions: Ki (VI16742), PCTAIRE2 (PCTK2) IPI00376955
# [16] = biological target: cellular target proteins in HeLa cell lysate (Homo sapiens, UniProt P14635); conditions: Ki (VI16742), CCNB1 IPI00745793
smiles,measurement,setting,value
CC(C)n1c(=O)ccc2cnc(Nc3ccc(OCCN)cc3)nc21 [V16742],Ki,[1],40.6 µM
same,Ki,[2]; ZAK (MLTK) IPI00029643,4.07 µM
same,Ki,[2]; ZAK (MLTK) IPI00329638,6.34 µM
same,Ki,[3],5.06 µM
same,Ki,[4],42.2 µM
same,Ki,[5],54 µM
same,Ki,[6],22 µM
same,Ki,[7],17.8 µM
same,Ki,[8],70.8 µM
same,Ki,[9],15.3 µM
same,Ki,[10],7.74 µM
same,Ki,[11],7.48 µM
same,Ki,[12],19.1 µM
same,Ki,[13],69.8 µM
same,Ki,[14],38.9 µM
same,Ki,[15],6.79 µM
same,Ki,[16],31.8 µM
